This note sets out measurements from patent US6545011B2, “Substituted 4,9-dihydrocyclopenta[imn]phenanthridine-5-ones, derivatives thereof and their uses” (Guilford Pharmaceuticals Inc., priority 2000, dated 2003).

Chains of the proteins cited; added tags and fusions are not shown.
UniProt P09874, whole entry: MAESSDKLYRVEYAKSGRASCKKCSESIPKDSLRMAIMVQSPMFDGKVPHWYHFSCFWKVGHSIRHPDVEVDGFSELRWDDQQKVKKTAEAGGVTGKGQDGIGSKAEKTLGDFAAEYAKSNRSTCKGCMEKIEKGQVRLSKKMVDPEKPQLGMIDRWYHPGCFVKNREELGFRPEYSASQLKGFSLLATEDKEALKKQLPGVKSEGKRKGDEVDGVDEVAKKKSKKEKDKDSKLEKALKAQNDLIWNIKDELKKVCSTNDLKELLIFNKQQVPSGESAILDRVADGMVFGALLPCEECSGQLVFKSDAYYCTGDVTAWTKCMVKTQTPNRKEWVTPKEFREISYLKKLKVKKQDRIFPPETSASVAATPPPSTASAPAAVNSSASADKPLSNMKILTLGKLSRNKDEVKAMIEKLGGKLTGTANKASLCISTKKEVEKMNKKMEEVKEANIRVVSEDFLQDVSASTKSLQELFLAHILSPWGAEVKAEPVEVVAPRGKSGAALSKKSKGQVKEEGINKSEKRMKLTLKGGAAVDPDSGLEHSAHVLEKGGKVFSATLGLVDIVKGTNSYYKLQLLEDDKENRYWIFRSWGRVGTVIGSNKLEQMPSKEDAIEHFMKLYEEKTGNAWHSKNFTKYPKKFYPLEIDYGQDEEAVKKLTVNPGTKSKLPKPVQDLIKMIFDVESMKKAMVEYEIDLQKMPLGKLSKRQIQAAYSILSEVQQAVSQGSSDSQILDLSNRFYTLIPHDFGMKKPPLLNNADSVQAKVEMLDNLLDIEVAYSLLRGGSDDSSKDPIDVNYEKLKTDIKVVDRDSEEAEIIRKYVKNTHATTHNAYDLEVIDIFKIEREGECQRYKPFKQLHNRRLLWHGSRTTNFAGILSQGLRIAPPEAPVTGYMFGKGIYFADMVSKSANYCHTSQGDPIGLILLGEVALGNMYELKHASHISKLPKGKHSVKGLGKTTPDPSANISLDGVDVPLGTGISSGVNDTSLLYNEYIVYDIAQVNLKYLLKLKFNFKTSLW

This test addresses purified recombinant human PARP (Homo sapiens, UniProt P09874). Description: PARP enzyme assay (IC50), [3H]NAD incorporation. Particulars: read-out: Inhibition IC50, approximate values, tested form: di-Na salt. The protocol: A convenient method to determine IC50 of a PARP inhibitor compound is a PARP assay using purified recombinant human PARP from Trevigan (Gaithersburg, Md.), as follows: The PARP enzyme assay is set up on ice in a volume of 100 microliters consisting of 100 mM Tris-HCl (pH 8.0), 1 mM MgCl2, 28 mM KCl, 28 mM NaCl, 0.1 mg/ml of DNase I activated herring sperm DNA (Sigma, Mo.), 3.0 micromolar [3H]nicotinamide adenine dinucleotide (470 mci/mmole), 7 micrograms/ml PARP enzyme, and various concentrations of the compounds to be tested. The reaction is initiated by incubating the mixture at 25° C. After 15 minutes of incubation, the reaction is terminated by adding 500 microliters of ice cold 20% (w/v) trichloroacetic acid. The precipitate formed is transferred onto a glass fiber filter (Packard Unifilter-GF/B) and washed three times with ethanol. After the filter is dried, the radioactivity is determined by scintillation counting.
Using the PARP assay described above, approximate IC50 (μM) values were obtained as shown in the following Table III, which also include specific embodiments of the compounds of the present invention: […]

For orientation: pIC50 means the IC50 on a negative log10 scale, so that one unit is a factor of ten.

pIC50: −log10 of the molar value.

Regarding `O=c1[nH]c2ccc(S(=O)(=O)O)c3c2c2c(cc(S(=O)(=O)O)cc12)C3`, the negative logarithm of the IC50 (pIC50) was 5.59.
